What was measured:
Cdc7/ASK = Cdc7/ASK (Homo sapiens, UniProt O00311); assay: Cdc7 Biochemical Assay Method 1: 384 well ELISA, whole protein substrate MCM2, antibody against Phospho MCM2 (S53); settings: 2 μM ATP
Experimental: This protocol describes a method for assaying Cdc7/ASK for activity. The assay is a 384 well ELISA assay, utilising a whole protein substrate (MCM2) and an antibody against Phospho MCM2 (S53). This site is thought to be specific to Cdc7/ASK phosphorylation and the assay has been validated using knockout mutants. Reagents • TBS: 25 mM Tris pH 7.2, 150 mM NaCl. (Dilute 10× stock by 1:10). • Wash Buffer: TBS+0.05% Tween 20. (Add 100 mL 1 M Tris pH 7.2, 120 mL 5 M NaCl and 2 mL 100% Tween 20 per 4 L). • Kinase Reaction Buffer: 50 mM Tris-HCl pH 8.5, 10 mM MgCl2, 1 mM DTT. […] Stop the reaction by adding 20 μL Stop Solution to all wells and record Absorbance on a Pherastar plate reader. […] Z' factors were determined for each plate tested and were all above 0.5. […]

Sequences of proteins named here, by UniProt entry; tags and fusion partners are left off.
UniProt O00311, whole entry: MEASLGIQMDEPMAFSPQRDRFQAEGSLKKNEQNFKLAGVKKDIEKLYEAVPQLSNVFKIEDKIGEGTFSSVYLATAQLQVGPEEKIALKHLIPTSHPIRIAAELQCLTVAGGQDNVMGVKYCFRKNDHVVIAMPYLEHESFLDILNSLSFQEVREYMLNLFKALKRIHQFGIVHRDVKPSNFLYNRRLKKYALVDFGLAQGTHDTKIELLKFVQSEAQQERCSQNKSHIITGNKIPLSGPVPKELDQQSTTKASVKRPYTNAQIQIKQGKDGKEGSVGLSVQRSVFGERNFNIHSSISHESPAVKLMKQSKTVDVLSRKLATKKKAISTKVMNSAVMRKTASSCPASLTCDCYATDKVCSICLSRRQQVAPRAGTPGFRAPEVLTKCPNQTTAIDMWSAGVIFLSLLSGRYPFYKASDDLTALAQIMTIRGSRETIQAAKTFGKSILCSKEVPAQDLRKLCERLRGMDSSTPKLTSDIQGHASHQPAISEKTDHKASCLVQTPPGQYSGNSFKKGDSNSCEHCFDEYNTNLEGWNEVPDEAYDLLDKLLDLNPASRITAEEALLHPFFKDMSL
UniProt Q9UBU7, whole entry partner: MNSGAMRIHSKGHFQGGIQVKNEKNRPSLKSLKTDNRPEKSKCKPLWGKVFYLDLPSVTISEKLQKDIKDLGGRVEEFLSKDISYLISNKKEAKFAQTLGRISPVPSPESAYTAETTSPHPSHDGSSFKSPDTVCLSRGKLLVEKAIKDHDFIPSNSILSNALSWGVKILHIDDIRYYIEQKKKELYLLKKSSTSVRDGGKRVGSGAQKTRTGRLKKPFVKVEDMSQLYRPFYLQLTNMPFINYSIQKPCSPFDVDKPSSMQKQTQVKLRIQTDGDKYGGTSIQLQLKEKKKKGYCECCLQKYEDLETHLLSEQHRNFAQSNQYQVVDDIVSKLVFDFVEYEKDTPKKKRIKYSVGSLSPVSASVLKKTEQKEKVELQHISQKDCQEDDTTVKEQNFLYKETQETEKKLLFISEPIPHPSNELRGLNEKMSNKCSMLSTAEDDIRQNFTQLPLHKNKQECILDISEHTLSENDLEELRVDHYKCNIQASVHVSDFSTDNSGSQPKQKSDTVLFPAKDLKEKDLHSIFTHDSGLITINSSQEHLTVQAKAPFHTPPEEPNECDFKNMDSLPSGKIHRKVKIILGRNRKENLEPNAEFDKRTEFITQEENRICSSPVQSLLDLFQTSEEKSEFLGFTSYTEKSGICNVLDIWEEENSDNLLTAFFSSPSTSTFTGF

[1] = system: Cdc7 (pS53MCM2 levels in HCT116 cells); assay: Cdc7 Cell Pharmacodynamics Assay Method 1: pS53MCM2 levels in HCT116 cells, 6 hours
Source text: This protocol describes a method to investigate the inhibition of Cdc7 activity of compounds by measuring pS53MCM2 levels in cells after treatment. […]

Q: How did the “Biochemical Method 1 (pIC50)” value (Cdc7/ASK) turn out when O=c1[nH]c(-c2ccncc2)nc(C2CCN(CC(F)(F)F)CC2)c1Cl was run?
A: Its value is 8.66.

Q: And the “Biomarker Method 1 (pEC50)” value [1]?
A: The value was 5.88.

Source: patent US10919896B2, “Preparation and uses of pyrimidinone derivatives” (Cancer Research Technology Limited, priority 2016, dated 2021)
